Values of other authors in patent publication US12667624B2, “GIP derivative, long-acting conjugate thereof, and pharmaceutical composition comprising same” (HANMI PHARM. CO., LTD., priority 2020, dated 2026).

Conditions: J Clin Endocrinol Metab. 2000; cited from earlier work

glucose-dependent insulinotropic polypeptide [native GIP]
half-life of the GIP in the human body: about 7 minutes
